Data on 1 substance can be found in patent US20250262315A1 (priority 2021, published 2025).

For data set [1], the system named is KPL-4 inflammatory breast tumor. The data set is described as follows: KPL-4 orthotopic xenograft mouse model of human breast cancer. Type of data set: in vivo. As to conditions: NSG mice. For orientation: Xenograft models place foreign cells or tissue in a host animal.
Data set [2] is described as follows: Tolerability study with blood chemistry and hematology analysis.
[3] abbreviates: CD-1 mice, 80 mg kg^−1, serum 5 days post injection.

Take KADCYLA®: FDA-approved anti-HER2 ADC: the median survival time in data set [1] (single i.v. dose 1 mg kg^−1) was found to be 35 days. Further, the “percent tumor growth inhibition (% TGI) on Day 31” value in data set [1] (single i.v. dose 1 mg kg^−1, n=5) is on record as 47%. In addition, in data set [2] (setting [3]), the ALKP level result was “appeared to be elevated”; the “level of BUN” value is “decreased”; the “levels of AST and ALT” value is listed as “significantly elevated”. Besides, the “red blood cell, platelet, and neutrophil counts vs untreated cohort” value in data set [2] (CD-1 mice, 80 mg kg^−1, whole blood Day 5) was “appeared to decrease platelets and increase neutrophils”. The “body weight loss (>20%) or other severe clinical symptom” value in data set [2] (healthy female CD-1 IGS mice, single dose 80 mg kg^−1, 5 days post-injection) is reported as “No significant body weight loss”.
